Measured values: patent US9968583B2, “Method of manufacture of liposome composition” (EISAI R & D MANAGEMENT CO., LTD., priority 2009, dated 2018)

Experiment: Eribulin mesylate blood plasma and tumor tissue PK in LOX cancer-bearing mice (Embodiment 11)
Type: in vivo
Settings: female, NU/NU nude, mouse, intravenous, tumor tissue, 1.0 mg/kg into caudal vein, read-out: TPI (mL/g)
Procedure: A blood sample was taken and tumor tissue extraction was carried out with a cardiac puncture at fixed periods after administration (15 minutes, 30 minutes, 1, 2, 4, 8, 12, 24, 36, and 48 hours) (n=3). The blood was sampled in a test tube containing heparin, and within 30 minutes of the sampling, the blood was separated by centrifuging at 1,500×g for 10 minutes at 4° C. to obtain the blood plasma. All of the tumor tissue was extracted, washed with PBS, and wiped with water-absorbent paper, and then the tissue weight was immediately weighed. The tissue was placed in a test tube and cooled in ice water, and then stored at −80° C. until analysis was carried out.
The PK parameters were calculated using non-compartment model analysis software (WinNonlin version 5.0.1).

Compound: C=C1C[C@@H]2CC[C@@]34C[C@H]5O[C@H]6[C@@H](O3)[C@H]3O[C@H](CC[C@@H]3O[C@H]6[C@H]5O4)CC(=O)C[C@@H]3[C@@H](OC)[C@@H](C[C@H](O)CN)O[C@H]3C[C@H]3O[C@@H](CC[C@@H]1O2)C[C@@H](C)C3=C [eribulin mesylate]
- Kp: 17.2

Where a name gives a salt, the structure may show the parent alone.
